Earlier results as cited in patent US20160052846A1, “METHOD OF DEMULSIFYING AND PURIFYING ORGANIC PRODUCTS FROM AN EMULSION” (CODEXIS, INC., priority 2012, published 2016).
Like-named read-outs stand apart in the source and are kept apart here.

Water sol (g per 100 g) (at 15° C.) [at 15 °C g per 100 g]	Substance	Water sol (g per 100 g) (at 20° C.) [at 20 °C g per 100 g]
9	butan-1-ol [Butanol]	–
–	butan-2-ol [2-butanol]	12.5
